{"sequences": {"note": "By UniProt entry, the sequences of proteins in these tests, tags left out.", "UniProt P9WH09, whole entry, looked up": "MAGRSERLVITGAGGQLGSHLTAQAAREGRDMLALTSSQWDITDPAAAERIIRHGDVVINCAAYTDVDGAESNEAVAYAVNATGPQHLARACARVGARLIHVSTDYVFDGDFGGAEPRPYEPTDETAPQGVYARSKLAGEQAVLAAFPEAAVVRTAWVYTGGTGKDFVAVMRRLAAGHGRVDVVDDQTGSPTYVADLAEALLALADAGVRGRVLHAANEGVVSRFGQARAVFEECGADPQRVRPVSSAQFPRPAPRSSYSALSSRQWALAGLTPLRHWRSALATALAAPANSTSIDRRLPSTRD", "UniProt P9WH11, whole entry, looked up": "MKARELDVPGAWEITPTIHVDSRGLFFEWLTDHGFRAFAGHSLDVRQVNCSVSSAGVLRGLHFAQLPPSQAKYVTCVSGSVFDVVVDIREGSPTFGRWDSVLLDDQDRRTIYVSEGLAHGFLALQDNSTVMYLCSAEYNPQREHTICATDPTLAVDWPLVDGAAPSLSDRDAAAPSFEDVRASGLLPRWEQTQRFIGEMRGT"}, "source": "PubChem BioAssay AID1533", "about": "(PCMD, 2009)", "note": "The list shows a part of the results, in another mix than the full data. Some tests of the compounds listed are not included; inactive here does not mean inactive elsewhere. Activity calls are given as the source filed them. Cut-off read from the data, not from the text of the source: active = inhibition mostly above about 34% (no sharp cut-off); inconclusive = no clear call, values can overlap the other calls; inactive = mostly below about 22%."}
{"target": "dTDP-4-dehydrorhamnose reductase (Mycobacterium tuberculosis (strain ATCC 25618 / H37Rv)) + dTDP-4-dehydrorhamnose 3,5-epimerase (Mycobacterium tuberculosis (strain ATCC 25618 / H37Rv)) (UniProt P9WH09+P9WH11)", "assay": "M. tuberculosis RmlC/RmlD coupled enzyme inhibitors, primary screen, biochemical, compound mixtures, 384-well, from 1536-well plates (AID 1533)", "settings": "RmlC+RmlD coupled enzyme assay, percent inhibition; primary screen in compound mixtures; at 3.6 µM; stronger effect = higher value"}
{"smiles": "CN(C)C1CCCC1OC(=O)C(O)(c1ccccc1)c1ccccc1", "note": "(centres undefined)", "inhibition": "inactive: 6.18%"}
{"smiles": "C=CCN1CCN(CCOC(=O)C(O)(c2ccccc2)c2ccccc2)CC1", "inhibition": "inactive: -0.86%"}
{"smiles": "CCN1CCCC(OC(=O)C2(O)c3ccccc3C=Cc3ccccc32)C1", "note": "(centres undefined)", "inhibition": "inactive: 3.09%"}
{"smiles": "CCN(CC)CC(C)C(C)OC(=O)C(O)(c1ccccc1)c1ccccc1", "note": "(centres undefined)", "inhibition": "inactive: 2.44%"}
{"smiles": "CC(C)N1C(=O)CC2(CCN(CCOC(=O)C(O)(c3ccccc3)c3ccccc3)CC2)C1=O", "inhibition": "inactive: -7.49%"}
{"smiles": "O=C(OC1CN2CCC1CC2)C(CO)(c1ccccc1)c1ccccc1", "note": "(centres undefined)", "inhibition": "inactive: 3.11%"}
{"smiles": "COc1ccc(Br)c(C(=O)NCC2(N3CCCCC3)CCCCC2)c1", "inhibition": "inactive: 1.33%"}
{"smiles": "CN(C)c1cccc(C(=O)NCC2(N(C)C)CCCCC2)c1", "inhibition": "inactive: 2.55%"}
{"smiles": "COc1cccc(C(=O)NCC2(N3CCCCC3)CCCCC2)c1", "inhibition": "inactive: 1.21%"}
